The target of experiment [1] is Signal transducer and activator of transcription 3 (Homo sapiens) (UniProt P40763). The experiment is described as follows: ATG_STAT3_CIS: Attagene CIS-FACTORIAL HepG2 Assay for human Signal Transducer and Activator of Transcription 3 (STAT3) (AID 2282963). Conditions: HepG2, Attagene cis-factorial STAT3 reporter transcription; actives raise or lower the signal. The procedure, abridged:
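Readout: fluorescent reporter mRNA fragments resolved by capillary electrophoresis. Setup: HepG2 transfected with MRTUs reporting endogenous transcription-factor activity, dosed 24 h. Gain or loss of signal fitted bidirectionally against DMSO control.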

The chains behind the UniProt entries cited, without tags or fusion partners.
UniProt P40763, whole entry: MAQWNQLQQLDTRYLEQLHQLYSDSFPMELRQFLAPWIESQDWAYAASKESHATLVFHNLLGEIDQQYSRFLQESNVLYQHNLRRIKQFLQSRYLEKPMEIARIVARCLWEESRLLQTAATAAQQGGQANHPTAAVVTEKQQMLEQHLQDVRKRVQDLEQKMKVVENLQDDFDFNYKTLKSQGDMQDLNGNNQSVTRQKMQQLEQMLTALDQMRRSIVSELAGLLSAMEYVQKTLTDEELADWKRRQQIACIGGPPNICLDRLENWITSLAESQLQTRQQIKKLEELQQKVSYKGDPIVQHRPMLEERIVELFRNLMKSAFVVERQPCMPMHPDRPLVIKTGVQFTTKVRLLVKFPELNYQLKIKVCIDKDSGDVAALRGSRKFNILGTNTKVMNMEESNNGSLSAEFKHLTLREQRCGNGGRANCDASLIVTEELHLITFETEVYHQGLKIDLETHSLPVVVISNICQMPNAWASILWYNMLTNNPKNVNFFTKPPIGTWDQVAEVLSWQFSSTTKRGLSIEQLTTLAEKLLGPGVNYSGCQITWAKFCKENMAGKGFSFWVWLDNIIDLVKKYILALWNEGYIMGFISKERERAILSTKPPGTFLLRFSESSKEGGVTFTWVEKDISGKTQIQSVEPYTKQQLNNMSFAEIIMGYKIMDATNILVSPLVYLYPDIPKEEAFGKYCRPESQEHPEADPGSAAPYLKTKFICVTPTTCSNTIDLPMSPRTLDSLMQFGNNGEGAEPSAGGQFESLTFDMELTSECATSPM
UniProt Q14994, whole entry: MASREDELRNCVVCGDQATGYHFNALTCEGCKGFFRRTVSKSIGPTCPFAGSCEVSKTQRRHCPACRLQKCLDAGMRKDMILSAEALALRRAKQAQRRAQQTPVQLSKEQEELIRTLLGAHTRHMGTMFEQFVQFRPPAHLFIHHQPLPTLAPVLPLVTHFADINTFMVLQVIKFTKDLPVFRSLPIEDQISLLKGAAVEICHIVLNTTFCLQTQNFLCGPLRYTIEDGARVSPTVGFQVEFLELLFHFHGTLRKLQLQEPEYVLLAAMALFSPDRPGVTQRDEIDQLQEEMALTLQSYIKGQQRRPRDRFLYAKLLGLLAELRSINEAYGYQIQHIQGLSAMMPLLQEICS
UniProt P17861, whole entry: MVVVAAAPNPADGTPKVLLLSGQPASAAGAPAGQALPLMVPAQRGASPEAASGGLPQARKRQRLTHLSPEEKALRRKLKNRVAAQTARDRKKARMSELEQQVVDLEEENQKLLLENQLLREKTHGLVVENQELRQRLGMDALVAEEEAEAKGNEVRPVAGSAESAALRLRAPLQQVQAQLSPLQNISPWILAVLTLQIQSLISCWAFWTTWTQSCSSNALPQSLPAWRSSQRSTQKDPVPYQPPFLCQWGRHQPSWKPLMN
UniProt P10275, whole entry: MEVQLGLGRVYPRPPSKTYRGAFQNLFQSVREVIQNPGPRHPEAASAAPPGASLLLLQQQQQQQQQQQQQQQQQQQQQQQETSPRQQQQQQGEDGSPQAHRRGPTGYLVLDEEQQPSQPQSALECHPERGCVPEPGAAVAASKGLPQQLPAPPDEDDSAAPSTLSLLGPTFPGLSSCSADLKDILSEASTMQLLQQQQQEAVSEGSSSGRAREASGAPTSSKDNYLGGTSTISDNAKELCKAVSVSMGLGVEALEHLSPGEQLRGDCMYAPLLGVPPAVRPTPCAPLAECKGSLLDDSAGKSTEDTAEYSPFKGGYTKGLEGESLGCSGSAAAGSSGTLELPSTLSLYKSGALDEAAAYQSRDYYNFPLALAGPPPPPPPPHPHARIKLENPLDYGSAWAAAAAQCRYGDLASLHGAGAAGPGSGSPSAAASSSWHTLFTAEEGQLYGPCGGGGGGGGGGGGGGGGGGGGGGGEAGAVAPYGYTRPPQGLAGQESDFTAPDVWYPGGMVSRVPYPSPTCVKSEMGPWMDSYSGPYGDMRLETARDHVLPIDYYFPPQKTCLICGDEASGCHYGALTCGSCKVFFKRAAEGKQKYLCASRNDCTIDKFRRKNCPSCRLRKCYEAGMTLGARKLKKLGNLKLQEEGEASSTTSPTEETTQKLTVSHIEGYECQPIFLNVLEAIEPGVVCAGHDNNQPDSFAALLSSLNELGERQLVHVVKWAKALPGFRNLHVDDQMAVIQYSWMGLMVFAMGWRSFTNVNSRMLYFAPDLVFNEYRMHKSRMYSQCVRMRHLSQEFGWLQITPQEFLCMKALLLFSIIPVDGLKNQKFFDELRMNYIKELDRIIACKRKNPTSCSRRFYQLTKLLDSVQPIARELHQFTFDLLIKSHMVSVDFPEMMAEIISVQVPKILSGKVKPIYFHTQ
UniProt P03372, whole entry: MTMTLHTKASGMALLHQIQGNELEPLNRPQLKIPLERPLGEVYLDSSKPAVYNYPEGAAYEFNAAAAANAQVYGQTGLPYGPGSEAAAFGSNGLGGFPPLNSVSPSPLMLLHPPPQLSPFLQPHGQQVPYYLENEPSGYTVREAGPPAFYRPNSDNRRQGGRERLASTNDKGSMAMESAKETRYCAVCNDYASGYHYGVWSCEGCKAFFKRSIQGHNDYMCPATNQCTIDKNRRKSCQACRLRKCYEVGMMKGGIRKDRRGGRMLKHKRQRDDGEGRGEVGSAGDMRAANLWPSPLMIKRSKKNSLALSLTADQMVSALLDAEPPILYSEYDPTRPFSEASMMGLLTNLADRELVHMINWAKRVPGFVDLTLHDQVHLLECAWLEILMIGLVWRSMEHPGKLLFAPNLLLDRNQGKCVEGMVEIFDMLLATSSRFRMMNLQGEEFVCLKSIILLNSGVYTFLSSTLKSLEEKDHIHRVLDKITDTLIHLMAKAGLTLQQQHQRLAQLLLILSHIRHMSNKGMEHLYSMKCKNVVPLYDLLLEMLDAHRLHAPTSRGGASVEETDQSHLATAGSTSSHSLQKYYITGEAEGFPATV
UniProt P11474, whole entry: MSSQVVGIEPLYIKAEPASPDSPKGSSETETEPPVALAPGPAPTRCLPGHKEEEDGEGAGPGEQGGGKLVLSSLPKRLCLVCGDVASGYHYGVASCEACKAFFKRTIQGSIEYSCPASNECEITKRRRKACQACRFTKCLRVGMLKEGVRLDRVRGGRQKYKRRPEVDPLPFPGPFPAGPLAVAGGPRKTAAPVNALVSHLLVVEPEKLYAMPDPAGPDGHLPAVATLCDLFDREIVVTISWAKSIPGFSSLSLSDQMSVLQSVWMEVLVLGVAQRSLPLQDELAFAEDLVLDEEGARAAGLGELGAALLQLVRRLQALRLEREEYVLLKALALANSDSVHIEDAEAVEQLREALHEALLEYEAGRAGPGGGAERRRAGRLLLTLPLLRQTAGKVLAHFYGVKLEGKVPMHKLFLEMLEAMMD

Experiment [2] in a line: ATG_TA_CIS: Attagene CIS-FACTORIAL HepG2 Assay for human TA Basal Promoter (AID 2282964). Conditions: HepG2 Attagene CIS-factorial TA basal promoter reporter; actives raise or lower the signal. The method in brief: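 Multiplexed mRNA reporter assay, HepG2, 24 h. Reporter cDNA amplified, 6-FAM primer-extended, HpaI-cut, CE-sized; DMSO = negative control and baseline.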
A short description of experiment [3]: ATG_TCF_b_cat_CIS: Attagene CIS-FACTORIAL HepG2 Assay for human T-Cell-Factor with beta-catenin (TCF/b-cat) (AID 2282965). Conditions: HepG2 TCF/beta-catenin cis-reporter transcription, actives raise or lower the signal. The procedure, abridged: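 Cells of the HepG2 line carry transiently transfected reporter units whose promoters respond to endogenous factors. Twenty-four hours post-dosing, reporter mRNA induction is measured by fluorescent RT-PCR and capillary electrophoresis, with DMSO as baseline.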

Experiment [4] in a line: ATG_VDRE_CIS: Attagene CIS-FACTORIAL HepG2 Assay for human Vitamin D Receptor Element (VDRE) (AID 2282968). The note with it: HepG2 VDRE cis-reporter transcription, actives raise or lower the signal. The method in brief: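 Transient MRTU transfection of HepG2, 24 h compound exposure. Readout: reporter transcripts via RT-PCR and capillary electrophoresis, fluorescence. Bidirectional fit vs DMSO.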

Experiment [5] addresses Nuclear receptor subfamily 1 group I member 3 (Homo sapiens) (UniProt Q14994). The experiment is described as follows: ATG_CAR_TRANS: Attagene TRANS-FACTORIAL HepG2 Assay for human Constitutive Androstane Receptor (CAR) (AID 2282969; active = hit-call score of the fitted dose curve at least 0.9, where 1 is the maximum;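 note: activators raise reporter mRNA above DMSO so AC50 marks induction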). Conditions: HepG2 Attagene TRANS-FACTORIAL CAR reporter. As for the experimental part:
ATG_TRANS is a cell-based, multiplexed-readout assay that uses HepG2, a human liver cell line, with measurements taken at 24 hours after chemical dosing in a 24-well plate.ATG_CAR_TRANS is one of 30 assay component(s) measured or calculated from the ATG_TRANS assay. It is designed to make measurements of mRNA induction, a form of inducible reporter, as detected with fluorescence intensity signals by Reverse transcription polymerase chain reaction (RT-PCR) and Capillary electrophoresis technology.Data from the assay component ATG_CAR_TRANS was analyzed into 1 assay endpoint. This assay endpoint, ATG_CAR_TRANS, was analyzed in the positive analysis fitting direction relative to DMSO as the negative control and baseline of activity. Using a type of inducible reporter, measures of mRNA for gain-of-signal activity can be used to understand the reporter gene at the transcription factor-level as they relate to the gene NR1I3. Furthermore, this assay endpoint can be referred to as a primary readout, because this assay has produced multiple assay endpoints where this one serves a reporter gene function. To generalize the intended target to other relatable targets, this assay endpoint is annotated to the nuclear receptor intended target family, where the subfamily is non-steroidal.
Human liver HepG2 cells are transiently transfected with multiple reporter transcription units (MRTUs) in 6-well plates using FuGene 6 reagent (Roche; 3 ml FuGene/1 mg DNA). The MRTU constructs are regulated by a cis-regulating element (promoter). […] A major difference between the CIS and TRANS system is that in CIS activities of endogenous TFs are measured, whereas the TRANS assay evaluates changes in activities of exogenous, chimeric NR-Gal4 proteins. […] At the end of 24 hour incubation, total RNA was isolated using TriZol reagent (Invitrogen). The isolated RNA is then reverse-transcribed using oligo(dT) primer and Mo-MLV reverse transcriptase (Invitrogen) with DNAse I (Ambion) treatment for 30 min. The one-tenth of the produced cDNA was amplified by PCR using Taq DNA polymerase (Invitrogen) and two reporter sequence-specific primers. The PCR products were fluorescently labeled by primer extension with 6-arboxyfluorescein (6-FAM) 5'-labeled reporter sequence-specific primer (2 min at 95 C, 20 s at 68 C and 10 min at 72 C) and these products were digested with 5U of HpaI (New England Biolabs) for 2h at 37 C. The fragments were purified using Qiaquick PCR columns (Qiagen), analyzed on an ABI 3130xL genetic analyzer (Applied Biosystems) with peak positions identified by using a set of X-rhodamine (ROX)-labeled MapMarker1000 molecular weight standards (BioVentures). […]

Experiment [6] has as its target X-box-binding protein 1 (Homo sapiens) (UniProt P17861). The experiment can be described thus: ATG_Xbp1_CIS: Attagene CIS-FACTORIAL HepG2 Assay for human X-box Binding Protein 1 (XBP1) (AID 2282972). Conditions: HepG2 XBP1 cis-element reporter, Attagene multiplex; actives raise or lower the signal. The method in brief: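 Reporter transcripts were quantified by RT-PCR with fluorescent primer extension and capillary electrophoresis after 24 h chemical exposure. Cells: transiently transfected HepG2 carrying cis-regulated reporter constructs; data fitted bidirectionally relative to DMSO.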

The target in experiment [7] is Androgen receptor (Homo sapiens) (UniProt P10275). The experiment can be described thus: ATG_AR_TRANS: Attagene TRANS-FACTORIAL HepG2 Assay for human Androgen Receptor (AR) (AID 2282973; active = hit-call score of the fitted dose curve at least 0.9, where 1 is the maximum). The note with it: HepG2 Attagene TRANS-FACTORIAL AR reporter transcription. The method in brief:
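Steps: transfect HepG2 with multiple GAL4-UAS reporter transcription units (TRANS format, exogenous NR-Gal4 protein); dose 24 h; isolate RNA, reverse-transcribe, PCR-amplify, FAM-label, HpaI-digest; resolve by capillary electrophoresis. Positive direction vs DMSO.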

Experiment [8] can be described thus: ATG_M_19_TRANS: Attagene TRANS-FACTORIAL HepG2 Assay for M19 Transcription Factor (Internal Marker) (AID 2282974; active = hit-call score of the fitted dose curve at least 0.9, where 1 is the maximum). Conditions: HepG2 Attagene TRANS-FACTORIAL M19 internal marker reporter. The procedure, abridged: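 Measured here: internal-marker reporter transcript from HepG2 cells transfected with MRTUs, harvested at 24 h. cDNA PCR products were 6-FAM labelled by primer extension, cut with HpaI for 2 h at 37 C, and resolved by CE.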

The target of experiment [9] is Estrogen receptor (Homo sapiens) (UniProt P03372). The experiment can be described thus: ATG_ERa_TRANS: Attagene TRANS-FACTORIAL HepG2 Assay for human Estrogen Receptor alpha (ERa) (AID 2282970; active = hit-call score of the fitted dose curve at least 0.9, where 1 is the maximum). Conditions: HepG2 Attagene TRANS ERa GAL4 reporter, mRNA. The method in brief: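 Liver-derived HepG2 cells expressing chimeric nuclear receptor-Gal4 proteins from transient transfection were exposed for 24 hours. Gain of reporter mRNA signal versus DMSO, read by capillary electrophoresis of FAM-labelled PCR products, was recorded.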

Experiment [10] addresses Steroid hormone receptor ERR1 (Homo sapiens) (UniProt P11474). The experiment can be described thus: ATG_ERRa_TRANS: Attagene TRANS-FACTORIAL HepG2 Assay for human Estrogen-Related Receptor alpha (ERRa) (AID 2282971; active = hit-call score of the fitted dose curve at least 0.9, where 1 is the maximum). The note with it: HepG2 Attagene TRANS reporter, ERRa transactivation. The procedure, abridged:
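Reporter transcript induction was quantified by RT-PCR and capillary electrophoresis of FAM-labelled, HpaI-cut products after 24 h treatment of HepG2 cells carrying transiently transfected GAL4-UAS reporter units and an exogenous ERRa-Gal4 fusion; activity scored as increase over DMSO.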

The list shows a part of the results, in another mix than the full data. Records with an inconclusive call do not appear. Active and inactive are the calls of the source. Rule for the calls, unless noted: active = hit-call score of the fitted dose curve at least 0.9, where 1 is the maximum; inactive = score below 0.9.

For `Cc1ccc([N+](=O)[O-])c([N+](=O)[O-])c1`, the compound was called inactive in experiment [1], in experiment [2], in experiment [3], in experiment [4], in experiment [5] and in experiment [6].
Consider `Cc1ccc([N+](=O)[O-])cc1[N+](=O)[O-]`, for which the outcome in [1], in [2], in [3], in experiment [4] and in [6] was inactive.
In the case of `Cc1cccc([N+](=O)[O-])c1[N+](=O)[O-]`, the compound was called inactive in experiment [1], in experiment [2], in experiment [3], in experiment [4], in experiment [5] and in [7]. Further, the AC50 in experiment [6] is active: 117 µM.
On to `CN(C)CCCl`, for which the result in experiment [1], in experiment [2], in [3], in experiment [4], in experiment [6] and in [8] was inactive.
Turning to `O=[N+]([O-])c1cccc([N+](=O)[O-])c1`, the compound was called inactive in experiment [1], in experiment [2], in experiment [3], in experiment [4], in [6] and in experiment [8].
For the compound `COc1ccc([N+](=O)[O-])cc1[N+](=O)[O-]`, the compound was classed as inactive in [1], in experiment [2], in experiment [3], in experiment [4], in experiment [5] and in experiment [9]. For the same compound, the result in [6] and in experiment [8] was inactive.
With `Cc1c([N+](=O)[O-])cccc1[N+](=O)[O-]`, the call in experiment [1], in [2], in experiment [3], in [4] and in [6] was inactive.
As for `CC(C)N(CCO)C(C)C`, the call in [1], in [2], in experiment [3], in experiment [4], in [10] and in experiment [6] was inactive.
Take `O=[N+]([O-])OCC(CO[N+](=O)[O-])(CO[N+](=O)[O-])CO[N+](=O)[O-]`: the compound was classed as inactive in experiment [1], in experiment [2], in experiment [3], in experiment [4], in experiment [5] and in experiment [6]. In addition, the call in experiment [7] and in [8] was inactive. The half-maximal activity concentration (AC50) in experiment [9] was active: 100 µM.
For the compound `N#CBr`, the compound was classed as inactive in experiment [1], in [2], in [3], in [4], in experiment [6] and in experiment [7].
Regarding `COP(C)(=O)OC`, the call in experiment [1], in experiment [2], in experiment [3], in experiment [4], in experiment [10] and in [6] was inactive.
With `CC(C)OP(C)(=O)OC(C)C`, the result in experiment [1], in [2], in experiment [3], in experiment [4] and in [6] was inactive.

Values taken from PubChem BioAssay (EPA / NIEHS).
